The nature of this data set: Pharmacokinetic study: variability in plasma concentration (% CV) after p.o. administration of SNAC tablet to Beagle dogs. The settings on record: for % CV AUC: p.o. tablet with 300 mg SNAC. The method, then:
The other monoclonal antibody, specific for an N-terminal epitope, was biotinylated. […] Illumination of the complex releases singlet oxygen atoms from the donor beads which channels into the acceptor beads and trigger chemiluminescence which was measured in the EnVision plate reader.
The LC-MS system consisted of Waters Acquity UPLC system (Waters) consisting of an autosampler (Model Acq-SM), pump (Model Acq-BSM), column oven (Model Acq-SM), detector (Model Acq-TUV) and LTQ Orbitrap XL (Thermo Fisher). RP-HPLC separation was achieved using a linear gradient of acetonitrile in 0.1% formic acid using CSH C18 column (Waters, 1×150 mm) with a flow rate of 0.1 ml/min at 45° C.
A pharmacokinetic study was carried out to determine plasma half-life of the GLP-1 peptides after p.o. administration to Beagle dogs.
Dogs were administered p.o. GLP-1 peptide 1 in a SNAC formulation. Blood samples were drawn at predefined time points after dosing, and samples were analysed for concentration of the GLP-1 peptide. Based on these measurements plasma concentration versus time profile were plotted and a non-compartmental pharmacokinetic analysis of the data was performed. The variability in plasma concentration of the GLP-1 peptide was determined as % CV for AUC. The amount of SNAC in the tablet composition was 300 mg.
Blood samples were drawn at predefined time points after dosing, and samples were analysed for concentration of the GLP-1 peptide. Based on these measurements plasma concentration versus time profile were plotted and a non-compartmental pharmacokinetic analysis of the data was performed. The variability in plasma concentration of the GLP-1 peptide was determined as % CV for AUC. The amount of SNAC in the tablet composition was 300 mg.

These results are taken from patent US10278923B2, “Oral dosing of GLP-1 compounds” (Novo Nordisk A/S, priority 2013, dated 2019).

Consider “N^ε26{2-[2-(2-{2-[2-(2-{(S)-4Carboxy-4-[10-(4-carboxyphenoxy)decanoylamino]-butyrylamino}ethoxy)ethoxy]acetylamino}ethoxy)ethoxy]acetyl}, N^ε37-{2-[2-(2-{2-[2-(2-{(S)-4-carboxy-4-[10-(4-carboxyphenoxy)decanoylamino]butyrylamino}ethoxy)ethoxy]acetyl-amino}ethoxy)ethoxy]acetyl}-[Aib^8,Arg^34,Lys^37]GLP-1(7-37)-OH [GLP-1 peptide 2]”, for which the “variability in plasma exposure, daily dosing compared to single dose” value (10 mg daily for 7 days vs single dose of 10 mg) was “significantly reduced”. Moreover, the “% CV AUC” value runs as follows: (10 mg, single dose) 67%; (10 mg/day for 7 days) 33%.
